In publication PMC7861561 (Current Research in Structural Biology, 2020) one finds Kd data, which are given here for four compounds.

Test in all cases: biochemical
In assay [1] the target is T1, BRPF1 bromodomain (Homo sapiens, UniProt P55201).
T1 sequence (P55201 629-742): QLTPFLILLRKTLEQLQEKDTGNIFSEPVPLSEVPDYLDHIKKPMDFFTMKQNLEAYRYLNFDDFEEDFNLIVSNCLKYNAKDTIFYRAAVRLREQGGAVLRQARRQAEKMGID
It is filed as binding. Particulars: SD.

Assay [2] deals with T2, BRPF1 bromodomain T24A mutant (Homo sapiens, UniProt P55201, T649A).
T2 sequence (P55201 629-742 T649A): T1 sequence (P55201 629-742) with T21A
It is filed as binding.

Assay [3] deals with T3, BRPF1 bromodomain E30A mutant (Homo sapiens, UniProt P55201, E655A).
T3 sequence (P55201 629-742 E655A): T1 sequence (P55201 629-742) with E27A
It is filed as binding.

Assay [4] concerns the target T4, BRPF1 bromodomain E36A mutant (Homo sapiens, UniProt P55201, E661A).
T4 sequence (P55201 629-742 E661A): T1 sequence (P55201 629-742) with E33A
In kind it is binding.

For assay [5], the target named is T5, BRPF1 bromodomain K81A mutant (Homo sapiens, UniProt P55201, K706A).
T5 sequence (P55201 629-742 K706A): T1 sequence (P55201 629-742) with K78A
It is filed as binding.

The target in assay [6] is T6, BRPF1 bromodomain R91A mutant (Homo sapiens, UniProt P55201, R716A).
T6 sequence (P55201 629-742 R716A): T1 sequence (P55201 629-742) with R88A
It is filed as binding.

Assay [7] addresses BRPF1 bromodomain N26A mutant (Homo sapiens, UniProt P55201, N651A).

SMILES strings stand for the structures. Numbering of substitutions follows the chain as printed.

For `CC(=O)NCCCC[C@H](NC(=O)CNC(=O)[C@H](CCCNC(=N)N)NC(=O)CNC(=O)[C@@H](N)CO)C(=O)NCC(=O)NCC(=O)N[C@@H](CCCCN)C(=O)NCC(=O)N[C@@H](CC(C)C)C(=O)O` [H4K5ac (1–10)], the Kd in assay [1] was 57.6 ± 6 µM; in assay [2], 28.9 µM; in assay [3] it was 79.4 µM; in assay [4], 51.4 µM; in assay [5] it was 59.9 µM; in assay [6] it was 37.3 µM. Further, in assay [7], binding was put at a Kd of 44.1 µM.

`CC(=O)NCCCC[C@H](NC(=O)CNC(=O)[C@@H](N)CC(C)C)C(=O)NCC(=O)NCC(=O)N[C@@H](C)C(=O)N[C@@H](CCCCNC(C)=O)C(=O)N[C@@H](CCCNC(=N)N)C(=O)N[C@@H](Cc1cnc[nH]1)C(=O)N[C@@H](CCCNC(=N)N)C(=O)N[C@@H](CCCCN)C(=O)O` [H4K12acK16ac (10–20)] came in with a Kd in assay [1] of 644 ± 102 µM.

`CC(=O)NCCCC[C@H](NC(=O)CNC(=O)CNC(=O)[C@H](CCCCN)NC(=O)CNC(=O)[C@H](CCCNC(=N)N)NC(=O)CNC(=O)[C@@H](N)CO)C(=O)NCC(=O)N[C@@H](CC(C)C)C(=O)O` [H4K8ac (1–10)] came in with a Kd in assay [1] of 189 ± 36.6 µM.

With `CC(=O)NCCCC[C@H](NC(=O)CNC(=O)CNC(=O)[C@H](CCCCNC(C)=O)NC(=O)CNC(=O)[C@H](CCCNC(=N)N)NC(=O)CNC(=O)[C@@H](N)CO)C(=O)NCC(=O)N[C@@H](CC(C)C)C(=O)O` [H4K5acK8ac (1–10)], the Kd in assay [1] was 27.7 ± 5.2 µM; in assay [2], 99.4 µM; in assay [3], 27.2 µM; in assay [4] it was 43.1 µM; in assay [5], 45.7 µM; in assay [6] it was 21.5 µM. The affinity in assay [7], expressed as Kd, was 34.5 µM.

Usually Kd stands for a measure of binding affinity in units of concentration. High values mean lower affinity, low ones higher affinity.
